Counter-ions that a name gives are not always drawn.
Tested on: soluble VEGFR2 (sVEGFR2)
Details: day 21, p = 0.019

## CNC(=O)c1cc(Oc2ccc(NC(=O)Nc3ccc(Cl)c(C(F)(F)F)c3)cc2)ccn1 [sorafenib, Sorafenib tosylate]
  correlation of sorafenib steady-state concentrations with inhibition of VEGFR2: inversely correlated

Reference: article PMC3537913 (Clinical cancer research : an official journal of the …, 2012)
